Laboratory results: patent US6572788B2, “Amine oxide wood preservatives” (Lonza, Inc., priority 2000, dated 2003)

How the values were obtained:
Test in all cases: Agar dilution plate method, wood rot fungi
Assay type in all cases: cell-based
Conditions in all cases: 100% growth retardation, Table 14
[1] = test system: P. placenta (brown rot fungi)
Protocol: (§1) The efficacy of the aqueous amine oxide solutions in Table 14 at various concentrations against the wood rot fungi T. versicolor (white rot fungi), G. trabeum (brown rot fungi), P. placenta (brown rot fungi), and C. globosum (soft rot decay fungi) were determined using the agar dilution plate method well known in the art. The minimum concentration of each amine oxide required to achieve 100% growth retardation of each specific organism, i.e., the minimum inhibitory concentration (MIC), was determined. The percent retardation of the fungi was determined by the percentage change in the diameter of the fungi on the agar plate (i.e. Percent Retardation=((Diameter of Control)−(Diameter of Treated Fungi))/(Diameter of Control)*100%).
(§2) The minimum concentration of the aqueous amine oxide solutions in Table 15 required to achieve 50% growth retardation of each specific organism, i.e., IC50, was estimated from the data obtained using Table2D curve fitting.

[2] = test system: T. versicolor (white rot fungi)
Protocol: as §1, §2

[3] = test system: G. trabeum (brown rot fungi)
Protocol: as §1, §2

[4] = test system: C. globosum (soft rot decay fungi)
Protocol: as §1, §2

Measured: MIC (ppm of amine oxides)

CCCCCCCC/C=C\CCCCCCCC[N+](C)(C)[O-] [Oleyl-DMAO]
>1000 ppm: all assays above
